Laboratory results taken from publication PMC6512903.

Amino acid sequences for entries named in this document (tags omitted). Residues count along the entry.
UniProt P02745, 23-245: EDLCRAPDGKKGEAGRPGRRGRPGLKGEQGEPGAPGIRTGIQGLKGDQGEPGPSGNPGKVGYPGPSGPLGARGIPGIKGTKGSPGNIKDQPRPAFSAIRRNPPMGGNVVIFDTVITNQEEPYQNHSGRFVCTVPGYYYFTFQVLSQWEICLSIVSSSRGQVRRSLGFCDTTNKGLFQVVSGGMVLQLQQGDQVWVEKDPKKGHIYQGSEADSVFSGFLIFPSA
UniProt P02746, 28-253: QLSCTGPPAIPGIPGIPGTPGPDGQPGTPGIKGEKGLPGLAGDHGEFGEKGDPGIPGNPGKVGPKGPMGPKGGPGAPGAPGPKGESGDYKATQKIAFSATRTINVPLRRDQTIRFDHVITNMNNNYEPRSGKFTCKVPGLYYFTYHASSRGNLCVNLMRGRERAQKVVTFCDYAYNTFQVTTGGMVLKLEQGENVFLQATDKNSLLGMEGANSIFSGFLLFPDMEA
UniProt P02747, 29-245: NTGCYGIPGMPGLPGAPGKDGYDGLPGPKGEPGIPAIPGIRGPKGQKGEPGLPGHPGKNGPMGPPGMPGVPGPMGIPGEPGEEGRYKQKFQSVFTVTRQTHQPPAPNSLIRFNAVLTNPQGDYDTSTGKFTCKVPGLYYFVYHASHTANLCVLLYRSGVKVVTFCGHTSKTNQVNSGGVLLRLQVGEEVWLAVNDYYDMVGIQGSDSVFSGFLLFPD

Target: EU-rituximab (MabThera, sourced and manufactured in Europe) (mouse | human)
Assay: ELISA

- relative C1q-binding activity (by EC50), mean of batches: 106%
Substance: human C1q (from UniProt P02745;P02746;P02747) (complex)
